Reference: PMC9614474 (Plant Physiology, 2022)

Amino acid sequences for entries named in this document (tags omitted). Residues count along the entry.
UniProt G2X4U8, 19-145 limits assumed: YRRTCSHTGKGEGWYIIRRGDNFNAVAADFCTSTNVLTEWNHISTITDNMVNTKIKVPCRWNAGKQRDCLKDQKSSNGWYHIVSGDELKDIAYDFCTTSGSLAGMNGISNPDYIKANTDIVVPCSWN

Target: Vd2LysM (Verticillium dahliae, UniProt G2X4U8)

With `CC(=O)N[C@H]1[C@H](O[C@H]2[C@H](O)[C@@H](NC(C)=O)[C@H](O[C@H]3[C@H](O)[C@@H](NC(C)=O)C(O)O[C@@H]3CO)O[C@@H]2CO)O[C@H](CO)[C@@H](O[C@@H]2O[C@H](CO)[C@@H](O[C@@H]3O[C@H](CO)[C@@H](O[C@@H]4O[C@H](CO)[C@@H](O)[C@H](O)[C@H]4NC(C)=O)[C@H](O)[C@H]3NC(C)=O)[C@H](O)[C@H]2NC(C)=O)[C@@H]1O` (stereo partly shown) [Chi6, hexaacetylchitohexaose] the “ligand-induced polymerization, centrifugation pellet with methylene blue” value was “clear pellets were formed upon incubation of these proteins with chitin”.
